In patent publication US9066958B2 (priority 2006, dated 2015):

Assay: Stability of solvent with storage
Assay type: physicochemical

In the case of Olive oil, the “Stability of solvent with storage” value is reported as “Oxidizes/”.
